The values below come from US20250230147A1, “LACTAMS AS CBL-B INHIBITORS” (Genentech, Inc., priority 2021, published 2025).

One assay addresses c-Cbl (Homo sapiens (Human), UniProt P22681). As to the kind of experiment: C-Cbl LCK Ub TR-FRET assay (c-cbl Lck HTRF). Type of assay: biochemical. The following applies: C-cbl Lck HTRF IC50 relative to Cbl-b Lck HTRF IC50. As to the method:
6 μL of detection mixture was added to all wells and briefly centrifuged before incubating for 20 min at room temperature. […] IC50 was generated using no LCK as the low control and DMSO as the high control.
For orientation: TR-FRET usually uses a lanthanide donor and a delayed reading to cut background.
On to `Cn1cnnc1CC1(c2cccc(N3Cc4c(cc(C5CCN5)cc4C(F)(F)F)C3=O)c2)COC1.O=CO` (stereo not shown) [Compound 13, 6-(azetidin-2-yl)-2-(3-(3-((4-methyl-4H-1,2,4-triazol-3-yl)methyl)oxetan-3-yl)phenyl)-4-(trifluoromethyl)isoindolin-1-one formate], for which the “(fold-selectivity)” value turned out to be 1.7x. Still for that read-out and setting: the value for `CCOc1cc([C@H](C)Cc2nncn2C)cc(N2Cc3c(cc(CN4CCC5(CC5)C4)cc3C(F)(F)F)C2=O)n1.O=CO` [Compound 56, (R)-6-((5-azaspiro[2.4]heptan-5-yl)methyl)-2-(6-ethoxy-4-(1-(4-methyl-4H-1,2,4-triazol-3-yl)propan-2-yl)pyridin-2-yl)-4-(trifluoromethyl)isoindolin-1-one formate] was 1.4x; that for `Cn1cnnc1CC1(c2cccc(N3Cc4c(cc(CN)cc4C(F)(F)F)C3=O)c2)COC1.O=CO` [Compound 66, 6-(aminomethyl)-2-(3-(3-((4-methyl-4H-1,2,4-triazol-3-yl)methyl)oxetan-3-yl)phenyl)-4-(trifluoromethyl)isoindolin-1-one formate] was 1.3x.

For `CC(C)NCc1cc2c(c(C(F)(F)F)c1)CN(c1cccc(C3([C@@H](F)c4nncn4C)COC3)c1)C2=O.O=CO` [Compound 226, (R)-2-(3-(3-(fluoro(4-methyl-4H-1,2,4-triazol-3-yl)methyl)oxetan-3-yl)phenyl)-6-((isopropylamino)methyl)-4-(trifluoromethyl)isoindolin-1-one formate], the “(fold-selectivity)” value is listed as “(1.1x)”.

Consider `Cn1cnnc1[C@H](F)C1(c2cccc(N3Cc4c(cc(CNC5CCC5)cc4C(F)(F)F)C3=O)c2)COC1.O=CO` [Compound 227, (R)-6-((Cyclobutylamino)methyl)-2-(3-(3-(fluoro(4-methyl-4H-1,2,4-triazol-3-yl)methyl)oxetan-3-yl)phenyl)-4-(trifluoromethyl)isoindolin-1-one formate], for which the “(fold-selectivity)” value is recorded as “(0.83x)”. Consider `CCCNCc1cc2c(c(C(F)(F)F)c1)CN(c1cccc(C3([C@@H](F)c4nncn4C)COC3)c1)C2=O.O=CO` [Compound 228, (R)-2-(3-(3-(fluoro(4-methyl-4H-1,2,4-triazol-3-yl)methyl)oxetan-3-yl)phenyl)-6-((propylamino)methyl)-4-(trifluoromethyl)isoindolin-1-one formate], for which the “(fold-selectivity)” value is recorded as “(0.78x)”.

For the molecule `CCNc1cc(C2(Cc3nncn3C)CC(F)(F)C2)cc(N2Cc3c(cc(CN4CCN(C)C[C@@H]4C(C)C)cc3C(F)(F)F)C2=O)n1.O=CO` [Compound 236, (S)-2-(4-(3,3-difluoro-1-((4-methyl-4H-1,2,4-triazol-3-yl)methyl)-cyclobutyl)-6-(ethylamino)pyridin-2-yl)-6-((2-isopropyl-4-methylpiperazin-1-yl)methyl)-4-(trifluoromethyl)isoindolin-1-one formate], the “(fold-selectivity)” value is listed as “(1.1x)”.

For the molecule `Cn1cnnc1[C@H](F)C1(c2cccc(N3Cc4c(cc(CNC5(C)CCC5)cc4C(F)F)C3=O)c2)COC1.O=CO` [Compound 249, (R)-4-(difluoromethyl)-2-(3-(3-(fluoro(4-methyl-4H-1,2,4-triazol-3-yl)methyl)oxetan-3-yl)phenyl)-6-(((1-methylcyclobutyl)amino)methyl)isoindolin-1-one formate], the “(fold-selectivity)” value was “(1.7x)”. In the case of `CC(C)[C@H]1CN(C)CCN1Cc1cc2c(c(C(F)(F)F)c1)CN(c1cc(C3(Cc4nncn4C)COC3)cc(NC3CCCC3)n1)C2=O.O=CO` [Compound 297, (S)-2-(6-(cyclopentylamino)-4-(3-((4-methyl-4H-1,2,4-triazol-3-yl)methyl)oxetan-3-yl)pyridin-2-yl)-6-((2-isopropyl-4-methylpiperazin-1-yl)methyl)-4-(trifluoromethyl)isoindolin-1-one formate], the “(fold-selectivity)” value is “(0.87x)”.

As for `CCNC(=O)CNc1cc(C2(Cc3nncn3C)CCC2)cc(N2Cc3c(cc(CNC4(C)CCC4)cc3C(F)(F)F)C2=O)n1.O=CO` [Compound 307, N-ethyl-2-((4-(1-((4-methyl-4H-1,2,4-triazol-3-yl)methyl)cyclobutyl)-6-(6-(((1-methylcyclobutyl)amino)methyl)-1-oxo-4-(trifluoromethyl)isoindolin-2-yl)pyridin-2-yl)amino)acetamide formate], the “(fold-selectivity)” value is reported as “(1.7x)”. The same measure, in the same setting: the same measure for `CC1CCN(CCNc2cc(C3(Cc4nncn4C)CCC3)cc(N3Cc4c(cc(CNC5(C)CCC5)cc4C(F)(F)F)C3=O)n2)CC1.O=CO` [Compound 309, 2-(4-(1-((4-methyl-4H-1,2,4-triazol-3-yl)methyl)cyclobutyl)-6-((2-(4-methylpiperidin-1-yl)ethyl)amino)pyridin-2-yl)-6-(((1-methylcyclobutyl)amino)methyl)-4-(trifluoromethyl)isoindolin-1-one formate]: “(0.97x)”; for `CNc1cc(C2(Cc3nncn3C)CCC2)cc(N2Cc3c(cc(CNC4(C)CCC4)cc3C(F)(F)F)C2=O)n1.O=CO` [Compound 310, 2-(4-(1-((4-methyl-4H-1,2,4-triazol-3-yl)methyl)cyclobutyl)-6-(methylamino)pyridin-2-yl)-6-(((1-methylcyclobutyl)amino)methyl)-4-(trifluoromethyl)isoindolin-1-one formate]: “(1.1x)”. In the case of `CN(C)C(=O)CNc1cc(C2(Cc3nncn3C)CCC2)cc(N2Cc3c(cc(CNC4(C)CCC4)cc3C(F)(F)F)C2=O)n1.O=CO` [Compound 311, N,N-dimethyl-2-((4-(1-((4-methyl-4H-1,2,4-triazol-3-yl)methyl)cyclobutyl)-6-(6-(((1-methylcyclobutyl)amino)methyl)-1-oxo-4-(trifluoromethyl)isoindolin-2-yl)pyridin-2-yl)amino)acetamide formate], the “(fold-selectivity)” value is listed as “(1.3x)”. On to `CC(=O)NCCCCNc1cc(C2(Cc3nncn3C)CCC2)cc(N2Cc3c(cc(CNC4(C)CCC4)cc3C(F)(F)F)C2=O)n1.O=CO` [Compound 314, N-(4-((4-(1-((4-methyl-4H-1,2,4-triazol-3-yl)methyl)cyclobutyl)-6-(6-(((1-methylcyclobutyl)amino)methyl)-1-oxo-4-(trifluoromethyl)isoindolin-2-yl)pyridin-2-yl)amino)butyl)acetamide formate], for which the “(fold-selectivity)” value is listed as “(1.1x)”. Still for that read-out and setting: the value for `CC(NCc1cc2c(c(C(F)(F)F)c1)CN(c1cccc(C3(Cc4nncn4C)CC(F)(F)C3)c1)C2=O)C1CC1.O=CO` (stereo not shown) [Compound 319, 6-(((1-cyclopropylethyl)amino)methyl)-2-(3-(3,3-difluoro-1-((4-methyl-4H-1,2,4-triazol-3-yl)methyl)cyclobutyl)phenyl)-4-(trifluoromethyl)isoindolin-1-one formate] was “(1.1x)”; that for `CC(C)Cc1cc(C2(Cc3nncn3C)CCC2)cc(N2Cc3c(cc(CNC4(C)CCC4)cc3C(F)(F)F)C2=O)n1.O=CO` [Compound 342, 2-(6-isobutyl-4-(1-((4-methyl-4H-1,2,4-triazol-3-yl)methyl)cyclobutyl)pyridin-2-yl)-6-(((1-methylcyclobutyl)amino)methyl)-4-(trifluoromethyl)isoindolin-1-one formate] was “(0.73x)”. On to `Cn1cnnc1CC1(c2cccc(N3Cc4c(cc(CNC5(C)CCCC5)cc4C(F)(F)F)C3=O)c2)CC(F)(F)C1.O=CO` [Compound 344, 2-(3-(3,3-difluoro-1-((4-methyl-4H-1,2,4-triazol-3-yl)methyl)cyclobutyl)phenyl)-6-(((1-methylcyclopentyl)amino)methyl)-4-(trifluoromethyl)isoindolin-1-one formate], for which the “(fold-selectivity)” value is reported as “(0.82x)”. Same read-out and setting: the same measure for `Cn1cnnc1CC1(c2cc(Cl)nc(N3Cc4c(cc(CNC5(C)CCC5)cc4C(F)(F)F)C3=O)c2)CCC1.O=CO` [Compound 351, 2-(6-chloro-4-(1-((4-methyl-4H-1,2,4-triazol-3-yl)methyl)cyclobutyl)pyridin-2-yl)-6-(((1-methylcyclobutyl)amino)methyl)-4-(trifluoromethyl)isoindolin-1-one formate]: “(0.56x)”. On the same count and under the same terms, the value for `Cn1cnnc1CC1(c2cccc(N3Cc4c(cc(CNCC5(C)CC5)cc4C(F)(F)F)C3=O)c2)CC(F)(F)C1.O=CO` [Compound 352, 2-(3-(3,3-difluoro-1-((4-methy-4H-1,2,4-triazol-3-yl)methyl)cyclobutyl)phenyl)-6-((((1-methylcyclopropyl)methyl)amino)methyl)-4-(trifluoromethyl)isoindolin-1-one formate] was “(0.56x)”; that for `CC1CC(C)(NCc2cc3c(c(C(F)(F)F)c2)CN(c2cccc(C4(Cc5nncn5C)CC(F)(F)C4)c2)C3=O)C1.O=CO` (stereo not shown) [Compound 353, 2-(3-(3,3-difluoro-1-((4-methyl-4H-1,2,4-triazol-3-yl)methyl)cyclobutyl)phenyl)-6-(((1,3-dimethylcyclobutyl)amino)methyl)-4-(trifluoromethyl)isoindolin-1-one formate] was “(0.56x)”.

Staying with this assay, now noted: C-cbl Lck HTRF IC50 relative to Cbl-b Lck HTRF IC50; formate.
For `Cn1cnnc1CC1(c2cccc(N3Cc4c(Cl)cc(CNC5(C)CCC5)cc4C3=O)c2)CC(F)(F)C1.O=CO` [Compound 252, 4-chloro-2-(3-(3,3-difluoro-1-((4-methyl-4H-1,2,4-triazol-3-yl)-methyl)cyclobutyl)phenyl)-6-(((1-methylcyclobutyl)amino)methyl)isoindolin-1-one formate], the “(fold-selectivity)” value is recorded as “(0.85x)”. The same measure, in the same setting: the value for `Cn1cnnc1CC1(c2cccc(N3Cc4c(Cl)cc(CNC5(C)CCC5)cc4C3=O)c2)CC(F)(F)C1.O=CO` [Compound 282, 4-chloro-2-(3-(3,3-difluoro-1-((4-methyl-4H-1,2,4-triazol-3-yl)methyl)cyclobutyl)phenyl)-6-(((1-methylcyclobutyl)amino)methyl) isoindolin-1-one formate] was “(0.86x)”.
